This assay deals with T1, human EP2 receptor (Homo sapiens, UniProt P43116).
T1 construct: purchased Euroscreen S.A. ES-562-M; host or cells: HEK293 cells
Put plainly: Measurement of EP2 receptor binding affinity ([3H]PGE2 displacement). The conditions noted are these: membrane fraction of HEK293 cells expressing human EP2 receptor; Table 4. Here is the method: Measurement of EP2 receptor binding affinity was carried out according to the method of Abramovitz et al. (Biochimica et Biophysica Acta, 1483, 285 (2000)). […] The membrane fraction was recovered on glass fiber filter paper (GF/B, available from Whatman PLC) using a cell harvester […], available from Brandel Inc.), and after washing with a buffer solution (10 mM MES-KOH (pH 6.0), 10 mM MgCl2), radioactivity was measured with a liquid scintillation analyzer (2000CA, available from Packard). […] The dissociation constant (Kd value) was calculated by Scatchard analysis.

The chains behind the UniProt entries cited, without tags or fusion partners. Where a name states a change or a piece, a line headed by the entry shows the natural chain unless it says otherwise.
UniProt P43116: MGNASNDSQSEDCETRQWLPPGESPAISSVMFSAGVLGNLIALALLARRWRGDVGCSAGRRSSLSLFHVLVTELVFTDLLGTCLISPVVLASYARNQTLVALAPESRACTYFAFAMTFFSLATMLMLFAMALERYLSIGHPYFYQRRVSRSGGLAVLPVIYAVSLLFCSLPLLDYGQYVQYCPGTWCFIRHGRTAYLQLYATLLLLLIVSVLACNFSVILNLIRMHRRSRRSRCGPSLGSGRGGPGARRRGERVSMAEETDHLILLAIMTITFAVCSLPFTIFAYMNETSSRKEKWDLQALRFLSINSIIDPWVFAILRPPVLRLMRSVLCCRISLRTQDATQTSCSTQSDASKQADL

For orientation: Ki means the equilibrium dissociation constant of an inhibitor or competing ligand from its target. Higher therefore signals weaker binding.

In turn, `CCCCC[C@H](O)/C=C/[C@H]1[C@H](O)CC(=O)[C@@H]1C/C=C\CCCC(=O)O` [PGE2, Prostaglandin E2, reference compound] displayed a Ki of 7.1 nM.

The record behind these values is US20120259123A1, “AMINOPYRIDINE COMPOUND” (UBE INDUSTRIES, LTD., priority 2009, published 2012).
